This passage reports TD50 results from ChEMBL document CHEMBL1144225, “Synthesis and anticonvulsant activities of N-benzyl (2R)-2-acetamido-3-oxysubstituted propionamide derivatives” (Bioorg Med Chem, 2008).

Each structure is given as a SMILES string.

The series relates to Mus musculus. Nature of the series: Neurotoxicity in ip dosed albino mouse by rotarod test. The class given is toxicity, organism-based. Particulars: in vivo. The procedure, abridged: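 Mice dosed intraperitoneally and tested on the rotorod for neurologic toxicity. Dose-effect data taken at the time of peak effect, given in hours.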
Background: The rotarod test checks motor coordination on a turning rod.

In the case of `CCCC(CCC)C(=O)[O-].[Na+]` [VALPROATE SODIUM], the TD50 worked out at 430 mg/kg.

The term TD50 denotes the dose at which the toxic effect under study appears in half of the subjects. Low readings indicate greater toxicity, high ones lower toxicity.
